Data as given in patent US20240376226A1, “COMPOSITIONS AND METHODS RELATING TO TUMOR ACTIVATED T CELL ENGAGERS” (Janux Therapeutics, Inc., priority 2019, published 2024).

Chains of the proteins cited; added tags and fusions are not shown. Residues count along the entry.
UniProt P02701, 25-152: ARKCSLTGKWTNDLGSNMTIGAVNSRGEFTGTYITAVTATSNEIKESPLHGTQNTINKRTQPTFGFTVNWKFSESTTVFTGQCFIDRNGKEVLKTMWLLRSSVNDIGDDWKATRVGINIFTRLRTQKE

Assays:
Trastuzumab (Ab-6, Ab-7) [1] = assay: Phagemid competition ELISA, Trastuzumab pre-incubated with soluble HER2; type: binding; settings: for Phage ELISA 6 nM Her2 % inhib: pre-incubation with 6 nM soluble HER2; for Phage ELISA 20 nM Her2 % inhib: pre-incubation with 20 nM soluble HER2
Trastuzumab (Ab-6, Ab-7) [2] = assay: Phagemid hit identification ELISA on captured Trastuzumab; type: binding; settings: clonal phage on neutravidin captured biotinylated Ab-6, Ab-7
neutravidin = neutravidin (Gallus gallus, UniProt P02701); assay: Phage ELISA, phage binding to neutravidin alone (NAv bkgd)
Trastuzumab (Ab-6, Ab-7) [3] = assay: BLI kinetic binding of antibody to peptides (Octet); settings: Target Trastuzumab; biotinylated synthetic peptide on sensor
Trastuzumab (Ab-6, Ab-7) [4] = assay: ELISA equilibrium binding of antibody to peptides; settings: Target Trastuzumab; antibody titrated on captured peptide
[5] = biological target: SP34 (Ab-9, Ab-10) binding to CD3; assay: ELISA inhibition of equilibrium binding of antibody to cognate antigen by peptides; settings: Target SP34; peptide inhibition of antibody binding to CD3
SP34 (Ab-9, Ab-10) [6] = assay: BLI kinetic binding of antibody to peptides (Octet); settings: Target SP34; biotinylated synthetic peptide on sensor
[7] = tested on: SP34 (Ab-9, Ab-10) binding to CD3; assay: BLI inhibition of kinetic binding of antibody to cognate antigen by peptides; settings: Target SP34, 100 uM peptide
SP34 (Ab-9, Ab-10) [8] = assay: Phagemid competition ELISA, SP34 pre-incubated with CD3; type: binding; settings: for Phage ELISA 20 nM CD3 % inhib: 20 nM CD3 pre-incubation; for Phage ELISA 200 nM CD3 % inhib: 200 nM CD3 pre-incubation
SP34 (Ab-9, Ab-10) [9] = assay: ELISA equilibrium binding of antibody to peptides; settings: Target SP34; antibody titrated on captured peptide
SP34 (Ab-9, Ab-10) [10] = assay: Phagemid hit identification ELISA on captured SP34; type: binding; settings: clonal phage, ELISA signal on captured SP34 (Ab-9, Ab-10)
[11] = clonal phage, ELISA signal on neutravidin alone

Phage ELISA NAv bkgd (neutravidin; clonal phage panned against Ab-6, Ab-7, signal on neutravidin alone)	Octet BLI Binds (Trastuzumab (Ab-6, Ab-7) [3])	EC50 (Trastuzumab (Ab-6, Ab-7) [4]) [nM]	IC50 [5] [nM]	Phage ELISA NAv bkgd (neutravidin; [11])	Octet BLI Binds (SP34 (Ab-9, Ab-10) [6])	Octet BLI Competes at 100 uM [7]	EC50 (SP34 (Ab-9, Ab-10) [9]) [nM]	SMILES	Phage ELISA 6 nM Her2 % inhib (Trastuzumab (Ab-6, Ab-7) [1]) [%]	Phage ELISA 20 nM Her2 % inhib (Trastuzumab (Ab-6, Ab-7) [1]) [%]	Phage ELISA Ab-6, Ab-7 signal (Trastuzumab (Ab-6, Ab-7) [2])	Phage ELISA 20 nM CD3 % inhib (SP34 (Ab-9, Ab-10) [8]) [%]	Phage ELISA 200 nM CD3 % inhib (SP34 (Ab-9, Ab-10) [8]) [%]	Phage ELISA Ab-9, Ab-10 signal (SP34 (Ab-9, Ab-10) [10])
0.084	YES	0.05	–	–	–	–	–	CC[C@H](C)[C@H](NC(=O)[C@H](CC(N)=O)NC(=O)CNC(=O)CN)C(=O)N[C@H]1CSSC[C@@H](C(=O)N[C@@H](C)C(=O)N[C@H](C(=O)NCC(=O)NCC(=O)NCC(=O)NCC(=O)N[C@@H](CO)C(=O)NCCOCCOCCOCCOCCC(=O)N[C@@H](CCCCNC(=O)CCCC[C@@H]2SC[C@@H]3NC(=O)N[C@@H]32)C(N)=O)C(C)C)NC(=O)CNC(=O)[C@H](CO)NC(=O)[C@H](CCCNC(=N)N)NC(=O)[C@H](Cc2c[nH]c3ccccc23)NC(=O)[C@H](CO)NC(=O)[C@H](Cc2ccc(O)cc2)NC(=O)[C@H](CC(=O)O)NC(=O)[C@H](CCSC)NC1=O [Peptide-15]	95	98	–	–	–	–
–	–	–	2220	0.053	YES	YES	2.66	CC[C@H](C)[C@H](NC(=O)[C@@H]1CSSC[C@H](NC(=O)[C@H](CCC(=O)O)NC(=O)[C@H](CC(C)C)NC(=O)CNC(=O)CN)C(=O)N[C@@H](Cc2ccccc2)C(=O)N[C@@H](CC(=O)O)C(=O)N2CCC[C@H]2C(=O)N[C@@H](CCC(=O)O)C(=O)N[C@@H]([C@@H](C)CC)C(=O)N2CCC[C@H]2C(=O)N[C@@H](CCC(=O)O)C(=O)N[C@@H](C)C(=O)N[C@@H](Cc2ccccc2)C(=O)N1)C(=O)NCC(=O)NCC(=O)NCC(=O)NCC(=O)N[C@@H](CO)C(=O)NCCOCCOCCOCCOCCC(=O)N[C@@H](CCCCNC(=O)CCCC[C@@H]1SC[C@@H]2NC(=O)N[C@@H]21)C(N)=O [Peptide-24]	–	–	–	90	90	–
–	–	–	96000	0.058	YES	YES	6.76	CC[C@H](C)[C@@H]1NC(=O)[C@H](CCSC)NC(=O)[C@@H](NC(=O)[C@H](CC(C)C)NC(=O)CNC(=O)CN)CSSC[C@@H](C(=O)N[C@@H](CC(C)C)C(=O)NCC(=O)NCC(=O)NCC(=O)NCC(=O)N[C@@H](CO)C(=O)NCCOCCOCCOCCOCCC(=O)N[C@@H](CCCCNC(=O)CCCC[C@@H]2SC[C@@H]3NC(=O)N[C@@H]32)C(N)=O)NC(=O)[C@H](C(C)C)NC(=O)[C@H](CC(=O)O)NC(=O)CNC(=O)[C@@H]2CCCN2C(=O)[C@H](CC(C)C)NC(=O)[C@H](Cc2c[nH]c3ccccc23)NC(=O)[C@H](CC(=O)O)NC(=O)CNC1=O [Peptide-28]	–	–	–	93	94	–

Further lines, the molecule ahead of its results:

SMILES	Phage ELISA NAv bkgd (neutravidin; clonal phage panned against Ab-6, Ab-7, signal on neutravidin alone)	Octet BLI Binds (Trastuzumab (Ab-6, Ab-7) [3])	EC50 (Trastuzumab (Ab-6, Ab-7) [4]) [nM]	IC50 [5] [nM]	Phage ELISA NAv bkgd (neutravidin; [11])	Octet BLI Binds (SP34 (Ab-9, Ab-10) [6])	Octet BLI Competes at 100 uM [7]	EC50 (SP34 (Ab-9, Ab-10) [9]) [nM]	Phage ELISA 6 nM Her2 % inhib (Trastuzumab (Ab-6, Ab-7) [1]) [%]	Phage ELISA 20 nM Her2 % inhib (Trastuzumab (Ab-6, Ab-7) [1]) [%]	Phage ELISA Ab-6, Ab-7 signal (Trastuzumab (Ab-6, Ab-7) [2])	Phage ELISA 20 nM CD3 % inhib (SP34 (Ab-9, Ab-10) [8]) [%]	Phage ELISA 200 nM CD3 % inhib (SP34 (Ab-9, Ab-10) [8]) [%]	Phage ELISA Ab-9, Ab-10 signal (SP34 (Ab-9, Ab-10) [10])
CC[C@H](C)[C@H](NC(=O)CNC(=O)CN)C(=O)N[C@@H](CC(=O)O)C(=O)N[C@H]1CSSC[C@@H](C(=O)N[C@@H](Cc2ccc(O)cc2)C(=O)NCC(=O)NCC(=O)NCC(=O)NCC(=O)N[C@@H](CO)C(=O)NCCOCCOCCOCCOCCC(=O)N[C@@H](CCCCNC(=O)CCCC[C@@H]2SC[C@@H]3NC(=O)N[C@@H]32)C(N)=O)NC(=O)[C@H](CO)NC(=O)[C@H](CCC(=O)O)NC(=O)[C@H]([C@@H](C)O)NC(=O)[C@H](Cc2ccc(O)cc2)NC(=O)[C@H](Cc2c[nH]cn2)NC(=O)[C@H](CC(=O)O)NC(=O)[C@H](CC(C)C)NC(=O)[C@H](CO)NC(=O)[C@H](C)NC1=O [Peptide-9]	–	–	–	–	–	–	–	–	90	96	2.004	–	–	–
CC[C@H](C)[C@@H]1NC(=O)[C@H]([C@@H](C)O)NC(=O)CNC(=O)[C@@H](NC(=O)CNC(=O)[C@H](CCC(N)=O)NC(=O)CNC(=O)CN)CSSC[C@@H](C(=O)N[C@@H](Cc2c[nH]c3ccccc23)C(=O)NCC(=O)NCC(=O)NCC(=O)NCC(=O)N[C@@H](CO)C(=O)NCCOCCOCCOCCOCCC(=O)N[C@@H](CCCCNC(=O)CCCC[C@@H]2SC[C@@H]3NC(=O)N[C@@H]32)C(N)=O)NC(=O)[C@H](Cc2c[nH]cn2)NC(=O)[C@@H]2CCCN2C(=O)[C@H](CCC(=O)O)NC(=O)[C@@H]2CCCN2C(=O)[C@H](CC(=O)O)NC(=O)[C@H](C)NC1=O [Peptide-25]	–	–	–	2490	0.061	YES	YES	1.95	–	–	–	84	84	–
CC[C@H](C)[C@@H]1NC(=O)[C@H](CC(=O)O)NC(=O)[C@@H]2CCCN2C(=O)[C@H](CC(=O)O)NC(=O)[C@H](Cc2c[nH]cn2)NC(=O)[C@@H](NC(=O)[C@H](CC(N)=O)NC(=O)CNC(=O)CN)CSSC[C@@H](C(=O)N[C@@H](CO)C(=O)NCC(=O)NCC(=O)NCC(=O)NCC(=O)N[C@@H](CO)C(=O)NCCOCCOCCOCCOCCC(=O)N[C@@H](CCCCNC(=O)CCCC[C@@H]2SC[C@@H]3NC(=O)N[C@@H]32)C(N)=O)NC(=O)[C@H](CC(C)C)NC(=O)[C@H](C(C)C)NC(=O)[C@H](Cc2ccc(O)cc2)NC(=O)[C@H](C)NC(=O)[C@@H]2CCCN2C1=O [Peptide-26]	–	–	–	–	0.084	YES	YES	8.69	–	–	–	81	85	0.540
